The values that follow come from publication PMC2193166 (The Journal of Experimental Medicine, 2000).

Assay [1] deals with T1, ALXR (Homo sapiens, UniProt P25090).
T1 sequence (P25090 1-351): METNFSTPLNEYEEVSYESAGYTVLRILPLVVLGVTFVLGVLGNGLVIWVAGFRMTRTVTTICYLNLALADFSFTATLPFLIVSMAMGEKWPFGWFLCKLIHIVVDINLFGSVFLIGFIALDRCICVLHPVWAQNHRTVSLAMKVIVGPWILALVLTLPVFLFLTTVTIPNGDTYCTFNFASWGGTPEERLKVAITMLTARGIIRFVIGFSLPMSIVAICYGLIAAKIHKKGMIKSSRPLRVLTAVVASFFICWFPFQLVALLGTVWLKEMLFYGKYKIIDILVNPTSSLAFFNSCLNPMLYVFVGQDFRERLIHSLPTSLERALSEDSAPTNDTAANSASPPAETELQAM
Put plainly: Chemotaxis of CHO cells expressing ALXR together with Gqo chimera. It is filed as cell-based. Particulars: not shown.

For assay [2], the target named is T1, ALXR. Particulars: cited from earlier work.
Assay [3] deals with T1, ALXR. Particulars: higher pharmacological doses; cited from earlier work.

In the case of FMLP, at ALXR [1], the “chemotaxis of CHO-ALXR cells (in words)” value is listed as “did not stimulate chemotaxis”. Besides, the “displacement of ^3H-LXA4 binding” value at ALXR [2] (at levels <1 μM) was “did not show displacement”. Further, the “concentration needed to compete for ^3H-LXA4 binding with ALXR” value at ALXR [2] is 1 to 100 µM. Moreover, the “doses at which ALXR responds to FMLP” value at ALXR [3] is 1 to 10 µM.
